Permeability data for macrocyclic peptides

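Conditions beyond the assay type are not listed; see the original paper. Other peptides of the study may be missing here. Entries at the database's floor value (log10 P of -10) are not listed.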

PAMPA is the parallel artificial membrane permeability assay, which has no cells and reads passive diffusion.
P is given in units of 10^-6 cm/s (from log10 values with two decimals); larger means faster passage.

* CCCC[C@@H]1NC(=O)[C@H](CC(C)C)NC(=O)CN(CC2CCCCC2)C(=O)[C@H](C)NC(=O)CN(CCCOC(C)C)C(=O)[C@H]2CCCN2C1=O: PAMPA 3.2 × 10^-6 cm/s
* CCCC[C@@H]1NC(=O)[C@@H](CC(C)C)NC(=O)CN(CC2CCCCC2)C(=O)[C@@H](Cc2ccccc2)NC(=O)CN(CCCOC(C)C)C(=O)[C@@H]2CCCN2C1=O: PAMPA 13 × 10^-6 cm/s
* CCCCCN1CC(=O)N[C@H](CC(C)C)C(=O)N[C@@H](CCCC)C(=O)N2CCC[C@@H]2C(=O)N(CC)CC(=O)N[C@H](C)C1=O: PAMPA 0.44 × 10^-6 cm/s
* CCCCCN1CC(=O)N[C@@H](CC(C)C)C(=O)N[C@@H](CCCC)C(=O)N2CCC[C@@H]2C(=O)N(CC)CC(=O)N[C@H](Cc2ccccc2)C1=O: PAMPA 3.9 × 10^-6 cm/s
* CCCC[C@@H]1NC(=O)[C@@H](CC(C)C)NC(=O)CN(CC2CCOCC2)C(=O)[C@H](Cc2ccccc2)NC(=O)CN(Cc2ccc3c(c2)OCO3)C(=O)[C@@H]2CCCN2C1=O: PAMPA 7.1 × 10^-6 cm/s
* CCCC[C@@H]1NC(=O)[C@H](CC(C)C)N(C)C(=O)CN(CC2CCOCC2)C(=O)[C@@H](Cc2ccccc2)NC(=O)CN(CC)C(=O)[C@@H]2CCCN2C1=O: PAMPA 0.19 × 10^-6 cm/s
* CCCC[C@@H]1NC(=O)[C@H](CC(C)C)NC(=O)CN(CC2CCOCC2)C(=O)[C@@H](Cc2ccccc2)NC(=O)CN(CCCOC(C)C)C(=O)[C@@H]2CCCN2C1=O: PAMPA 0.14 × 10^-6 cm/s
* CCCCCN1CC(=O)N(C)[C@@H](CC(C)C)C(=O)N[C@@H](CCCC)C(=O)N2CCC[C@H]2C(=O)N(Cc2ccc3c(c2)OCO3)CC(=O)N[C@@H](Cc2ccccc2)C1=O: PAMPA 0.87 × 10^-6 cm/s
* CCCC[C@@H]1NC(=O)[C@@H](CC(C)C)NC(=O)CN(CC2CCCCC2)C(=O)[C@H](Cc2ccccc2)NC(=O)CN(CCCOC(C)C)C(=O)[C@H]2CCCN2C1=O: PAMPA 11 × 10^-6 cm/s
* CCCC[C@@H]1NC(=O)[C@@H](CC(C)C)N(C)C(=O)CN(CC2CCOCC2)C(=O)[C@@H](Cc2ccccc2)NC(=O)CN(CCCOC(C)C)C(=O)[C@@H]2CCCN2C1=O: PAMPA 1.5 × 10^-6 cm/s
* CCCC[C@@H]1NC(=O)[C@@H](CC(C)C)N(C)C(=O)CN(CC2CCOCC2)C(=O)[C@H](Cc2ccccc2)NC(=O)CN(CCCOC(C)C)C(=O)[C@@H]2CCCN2C1=O: PAMPA 8.3 × 10^-6 cm/s
* CCCC[C@@H]1NC(=O)[C@H](CC(C)C)N(C)C(=O)CN(CC2CCOCC2)C(=O)[C@@H](C)NC(=O)CN(CC)C(=O)[C@@H]2CCCN2C1=O: PAMPA 0.028 × 10^-6 cm/s
* CCCC[C@@H]1NC(=O)[C@H](CC(C)C)N(C)C(=O)CN(CC2CCCCC2)C(=O)[C@H](C)NC(=O)CN(CCCOC(C)C)C(=O)[C@@H]2CCCN2C1=O: PAMPA 15 × 10^-6 cm/s
* CCCC[C@@H]1NC(=O)[C@@H](CC(C)C)N(C)C(=O)CN(CC2CCOCC2)C(=O)[C@H](Cc2ccccc2)NC(=O)CN(Cc2ccc3c(c2)OCO3)C(=O)[C@H]2CCCN2C1=O: PAMPA 3.3 × 10^-6 cm/s
* CCCCCN1CC(=O)N[C@@H](CC(C)C)C(=O)N[C@@H](CCCC)C(=O)N2CCC[C@H]2C(=O)N(Cc2ccc3c(c2)OCO3)CC(=O)N[C@@H](C)C1=O: PAMPA 3.2 × 10^-6 cm/s
* CCCCCN1CC(=O)N[C@H](CC(C)C)C(=O)N[C@@H](CCCC)C(=O)N2CCC[C@@H]2C(=O)N(CCCOC(C)C)CC(=O)N[C@H](Cc2ccccc2)C1=O: PAMPA 9.3 × 10^-6 cm/s
* CCCC[C@@H]1NC(=O)[C@H](CC(C)C)N(C)C(=O)CN(CC2CCCCC2)C(=O)[C@H](Cc2ccccc2)NC(=O)CN(Cc2ccc3c(c2)OCO3)C(=O)[C@H]2CCCN2C1=O: PAMPA 0.049 × 10^-6 cm/s
* CCCC[C@@H]1NC(=O)[C@H](CC(C)C)N(C)C(=O)CN(CC2CCOCC2)C(=O)[C@H](Cc2ccccc2)NC(=O)CN(CCCOC(C)C)C(=O)[C@H]2CCCN2C1=O: PAMPA 7.8 × 10^-6 cm/s
* CCCC[C@@H]1NC(=O)[C@H](CC(C)C)NC(=O)CN(CC2CCCCC2)C(=O)[C@@H](C)NC(=O)CN(Cc2ccc3c(c2)OCO3)C(=O)[C@H]2CCCN2C1=O: PAMPA 2.8 × 10^-6 cm/s
* CCCC[C@@H]1NC(=O)[C@H](CC(C)C)NC(=O)CN(CC2CCCCC2)C(=O)[C@H](Cc2ccccc2)NC(=O)CN(Cc2ccc3c(c2)OCO3)C(=O)[C@@H]2CCCN2C1=O: PAMPA 3.9 × 10^-6 cm/s
* CCCCCN1CC(=O)N(C)[C@@H](CC(C)C)C(=O)N[C@@H](CCCC)C(=O)N2CCC[C@H]2C(=O)N(CC)CC(=O)N[C@@H](C)C1=O: PAMPA 2.9 × 10^-6 cm/s
* CCCC[C@@H]1NC(=O)[C@@H](CC(C)C)NC(=O)CN(CC2CCOCC2)C(=O)[C@@H](C)NC(=O)CN(CC)C(=O)[C@@H]2CCCN2C1=O: PAMPA 0.01 × 10^-6 cm/s
* CCCC[C@@H]1NC(=O)[C@@H](CC(C)C)N(C)C(=O)CN(CC2CCCCC2)C(=O)[C@@H](C)NC(=O)CN(CC)C(=O)[C@@H]2CCCN2C1=O: PAMPA 1.8 × 10^-6 cm/s

Excerpt, the final 2 entries:

- CCCC[C@@H]1NC(=O)[C@@H](CC(C)C)NC(=O)CN(CC2CCOCC2)C(=O)[C@@H](C)NC(=O)CN(CC)C(=O)[C@@H]2CCCN2C1=O: PAMPA 0.01 × 10^-6 cm/s
- CCCC[C@@H]1NC(=O)[C@@H](CC(C)C)N(C)C(=O)CN(CC2CCCCC2)C(=O)[C@@H](C)NC(=O)CN(CC)C(=O)[C@@H]2CCCN2C1=O: PAMPA 1.8 × 10^-6 cm/s

Values of Furukawa et al. 2016, doi:10.1021/acs.jmedchem.6b01246, as listed in CycPeptMPDB.